Literature values in patent publication US12582646B2, “Method for treating drug or alcohol dependency” (AETHER THERAPEUTICS INC., priority 2019, dated 2026).

Amino acid sequences for entries named in this document (tags omitted).
UniProt P35372, whole entry, species assumed: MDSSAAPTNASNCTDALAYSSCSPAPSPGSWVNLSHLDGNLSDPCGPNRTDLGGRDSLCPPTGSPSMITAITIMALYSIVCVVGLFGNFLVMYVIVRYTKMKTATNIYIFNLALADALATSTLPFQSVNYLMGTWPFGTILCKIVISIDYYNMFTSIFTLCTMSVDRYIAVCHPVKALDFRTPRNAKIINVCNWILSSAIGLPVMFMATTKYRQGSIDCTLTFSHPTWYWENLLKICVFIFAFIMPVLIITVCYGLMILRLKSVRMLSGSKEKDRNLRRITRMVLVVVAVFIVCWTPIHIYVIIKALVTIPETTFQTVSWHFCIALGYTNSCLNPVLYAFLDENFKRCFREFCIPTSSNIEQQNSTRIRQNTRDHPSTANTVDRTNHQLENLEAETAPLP

Columns and labels:
mu opioid receptor = mu opioid receptor (Homo sapiens, UniProt P35372); conditions: cited from earlier work
mu opioid receptor (MOR) = mu opioid receptor (MOR) (Homo sapiens, UniProt P35372); conditions: in vitro; cited from earlier work

Row | Compound | type of opioid antagonism (mu opioid receptor) | affinity to the mu opioid receptor (MOR) compared with naltrexone (mu opioid receptor (MOR))
1 | Oc1ccc2c3c1O[C@H]1[C@H](O)CC[C@@]4(O)[C@@H](C2)N(CC2CC2)CC[C@]314 [6alpha-naltrexol] | neutral antagonism | 
2 | Oc1ccc2c3c1O[C@H]1[C@H](O)CC[C@@]4(O)[C@@H](C2)N(CC2CC2)CC[C@]314 [6beta-naltrexol] | neutral opioid antagonist | slightly lower affinity
